# Test results: ChEMBL document CHEMBL5230104, “Systemic review on B-RafV600E mutation as potential therapeutic target for the treatment of cancer” (Eur J Med Chem, 2020)
# Chains of the proteins cited; added tags and fusions are not shown. Residues count along the entry.
# UniProt P15056, 2-766 limits assumed: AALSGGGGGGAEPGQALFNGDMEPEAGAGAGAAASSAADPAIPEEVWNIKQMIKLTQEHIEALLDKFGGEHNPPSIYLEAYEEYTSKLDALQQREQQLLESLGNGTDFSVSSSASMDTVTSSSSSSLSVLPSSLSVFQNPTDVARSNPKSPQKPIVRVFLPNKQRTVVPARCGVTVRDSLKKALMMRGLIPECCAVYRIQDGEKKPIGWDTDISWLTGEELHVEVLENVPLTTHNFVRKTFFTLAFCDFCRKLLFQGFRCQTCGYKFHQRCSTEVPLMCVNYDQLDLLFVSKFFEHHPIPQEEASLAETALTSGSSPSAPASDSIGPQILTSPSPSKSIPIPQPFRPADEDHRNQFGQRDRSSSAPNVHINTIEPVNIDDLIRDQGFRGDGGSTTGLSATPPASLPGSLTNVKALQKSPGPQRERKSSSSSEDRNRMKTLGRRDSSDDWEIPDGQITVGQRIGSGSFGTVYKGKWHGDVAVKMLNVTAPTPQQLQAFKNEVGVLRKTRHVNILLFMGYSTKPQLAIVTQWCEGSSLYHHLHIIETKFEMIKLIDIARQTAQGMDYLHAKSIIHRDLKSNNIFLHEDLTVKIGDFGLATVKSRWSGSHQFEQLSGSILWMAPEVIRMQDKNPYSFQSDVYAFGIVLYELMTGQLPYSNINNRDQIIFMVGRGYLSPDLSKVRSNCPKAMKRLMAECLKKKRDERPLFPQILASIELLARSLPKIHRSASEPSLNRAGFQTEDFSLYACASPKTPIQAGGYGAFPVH
# UniProt P15056, 2-766 V600E limits assumed: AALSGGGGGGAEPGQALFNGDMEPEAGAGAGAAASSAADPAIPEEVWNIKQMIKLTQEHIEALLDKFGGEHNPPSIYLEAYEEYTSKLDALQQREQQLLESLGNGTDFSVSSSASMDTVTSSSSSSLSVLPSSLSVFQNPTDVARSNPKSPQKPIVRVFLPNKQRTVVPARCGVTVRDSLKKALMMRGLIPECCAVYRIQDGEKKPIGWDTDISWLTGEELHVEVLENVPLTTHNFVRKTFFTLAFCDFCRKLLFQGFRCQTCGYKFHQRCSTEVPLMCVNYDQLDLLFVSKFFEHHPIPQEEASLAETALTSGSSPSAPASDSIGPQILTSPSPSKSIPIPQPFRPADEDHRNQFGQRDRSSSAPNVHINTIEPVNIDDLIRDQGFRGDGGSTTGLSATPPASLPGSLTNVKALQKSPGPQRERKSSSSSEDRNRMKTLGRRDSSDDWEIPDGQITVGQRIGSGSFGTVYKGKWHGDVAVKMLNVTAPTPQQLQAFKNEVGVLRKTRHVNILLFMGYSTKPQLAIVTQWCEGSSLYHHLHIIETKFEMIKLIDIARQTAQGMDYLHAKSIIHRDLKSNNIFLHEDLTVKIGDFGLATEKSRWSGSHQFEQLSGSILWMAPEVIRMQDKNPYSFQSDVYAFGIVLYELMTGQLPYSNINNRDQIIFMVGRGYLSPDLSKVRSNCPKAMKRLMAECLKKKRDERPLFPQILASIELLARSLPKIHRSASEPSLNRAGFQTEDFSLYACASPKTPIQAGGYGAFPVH
# Tests used:
# [1] = target: Serine/threonine-protein kinase B-raf (Homo sapiens, UniProt P15056); assay: Inhibition of wild type B-Raf (unknown origin) incubated for 120 mins in presence of ATP by ADP-Glo luminescence assay
# [2] = target: Serine/threonine-protein kinase B-raf (Homo sapiens, UniProt P15056, V600E); assay: Inhibition of B-Raf V600E mutant (unknown origin) incubated for 120 mins in presence of ATP by ADP-Glo luminescence assay
compound,measurement,setting,value
CC(=O)Nc1cc(-c2sc(C3CCN(C4CC4)CC3)nc2-c2cccc(NS(=O)(=O)c3cc(F)ccc3F)c2F)ccn1,IC50,[1],4.8 nM
same,IC50,[2],3.7 nM
